# Ab-14 light chain CDR variants: yeast mating affinities

The measurements come from Li et al. 2023 (doi:10.1038/s41467-023-39022-2) through the FLAb antibody collection.

The target is the same throughout: PDVDLGDISGINAS, from the HR2 region of SARS-CoV-2 spike.

Each scFv is VH, a (GGGGS)3 linker, VL, as in the parent Ab-14, and differs from it in the CDRs of the light chain only.
VH: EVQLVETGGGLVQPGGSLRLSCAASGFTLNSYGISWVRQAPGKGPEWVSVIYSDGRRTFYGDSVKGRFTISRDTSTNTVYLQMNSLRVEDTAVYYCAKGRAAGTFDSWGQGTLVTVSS
VL: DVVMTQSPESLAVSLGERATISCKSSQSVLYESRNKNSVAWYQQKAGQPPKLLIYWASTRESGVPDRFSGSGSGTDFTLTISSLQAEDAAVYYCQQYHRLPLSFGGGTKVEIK

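Designed CDR sequences, proposed from the first random library and measured here. Group labels follow the data file (En: ensemble of fine-tuned language models; GP: Gaussian process model; HC: hill climbing; Gen: genetic algorithm; Gibbs: Gibbs sampling; a sequence that several methods proposed may carry one label only). AlphaSeq pools MATa yeast showing the antibodies with MATalpha yeast showing the peptide. Mating (16 h, 30 °C) was followed by selection of diploids and sequencing of their barcodes. Each replicate has its own calibration line, from reference interactions of the BCL2 family. Each pool was mated in six replicate cultures.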

The parent's light chain CDRs are KSSQSVLYESRNKNSVA, WASTRES, QQYHRLPLS; each variant's own CDRs replace them letter for letter.
Variants here have more than six changes.
Values are log10 of the apparent Kd in nM; lower means stronger binding.
Averages over replicates are reported, and they cover detected replicates only.
An entry "nd" has no value in the source: the pair was not observed among the diploids in that replicate. This suggests poor binding but is not conclusive.
As a blank, each scFv also met three strains without target: over all light chain designs, 4% of these pairings were detected, typically at 2.64 and seldom below 1.59.
A sequence measured in both rounds can read differently, since the two assays cover different ranges.
The authors' rule: three or more of the six replicates give a measured affinity, fewer mean a poor binder.

CDR-L1,CDR-L2,CDR-L3,group,"log10 Kd, replicates","mean, log10 nM"
KVSEFMRGLMGRKDSIA,DNVTRSN,QQYDRLPLS,En_Gen,1.41 0.67 1.06 0.66 0.74 0.91,0.91
SLGPFEQQIMKDLNNIA,NTQVRAT,QQYMRLPFM,En_Gibbs,0.01 -0.25 -0.25 -0.25 -0.17 -0.17,-0.18
KIPQATMQESVSKNSVA,ELSTRGS,QQYHRLPLS,En_HC,0.94 1.05 1.01 1.17 1.21 1.06,1.08
QLEQLVWPMGKDWHSIA,NATTLLA,QQYYYLPLM,En_Gibbs,2.21 nd 1.67 2.20 2.58 2.47,2.23
SFHEINMEGLATNANVA,NASQLFE,QHYFRLPLQ,En_Gibbs,1.59 1.46 1.03 0.67 0.75 1.51,1.17
NISTQIPEFEMWDNNIA,GATLRPT,QDYARLPLS,En_Gibbs,nd nd nd nd nd nd,nd
KLQSLELYEGRWKNSVA,SASTRES,QQYHRLPLS,GP_Gibbs,0.55 0.46 0.22 0.23 0.13 0.26,0.31
QIYQAMHTLSQVKDNVA,DVNERGS,QQYYRLPLS,En_Gen,1.76 1.25 nd 1.50 1.56 1.93,1.60
KLQNFSQEDNKMWNNIA,DMTMVHT,QQYMRLPLE,En_Gibbs,0.91 0.72 0.83 0.70 0.94 1.06,0.86
MISDMGLHDSRIQDSVA,NNSTREA,QQYDRLPLS,En_HC,nd 2.63 2.30 3.86 2.96 nd,2.94
NMQMQDDLMLNAKQNVA,GVDMREE,QQYFRLPFL,En_Gibbs,0.31 0.09 0.12 -0.06 0.26 0.28,0.17
MIQQGENRDSEHYNSIA,EGHERPI,QQYYTLPLV,En_Gibbs,nd 1.64 2.53 nd 2.49 nd,2.22
MFSQLFYTGSRTRNAVA,QASTREN,QQYHHLPLS,En_HC,1.08 1.00 0.87 1.26 0.43 1.22,0.98
NVGIEDPGQWYMWDSIA,GSSLRAE,QQYWRLPLM,En_Gibbs,1.65 1.32 1.30 0.73 0.88 0.85,1.12
KLWAYTQGFFRNMQNIA,DGIYRVT,QQYGRLPLS,En_Gibbs,1.41 2.52 2.82 0.86 1.85 1.85,1.88
NITQIGDNMGDQRANVA,NGETLFH,QQYARLPLL,En_Gibbs,0.41 0.67 0.57 0.58 0.77 0.39,0.56
MISQLYNSGQFAINSVA,QASLRCN,QQYDRLPLM,En_Gen,1.57 1.98 1.46 1.47 1.82 1.89,1.70
QLAVDRLQEYEMGDAIA,GKTLRED,QQYARLPLS,En_Gibbs,0.84 1.04 0.84 0.72 0.37 0.55,0.73
NLKENNVDNQTKYSNIA,SADQREK,QQYYRLPLQ,En_Gibbs,0.26 0.24 0.15 -0.02 0.06 0.16,0.14
MMSMGSLGGMRAKNNVA,QESTRES,QQYHRLPLI,En_HC,0.87 1.01 1.71 0.92 1.52 1.66,1.28
MISNVMNSLTHTGNNVA,DLQERED,QQYFRLPLS,En_Gen,0.61 0.50 0.38 0.59 0.38 0.58,0.51
TISDVMGHMSKHTNNVA,DMDTRGQ,QQYNRLPLS,En_Gen,0.38 0.15 0.12 -0.14 0.12 0.40,0.17
NMQLQVRNGNNNKYNIA,AEMLREY,QQYNRLPLS,En_Gibbs,1.38 1.35 1.99 1.31 1.35 1.74,1.52
TIGQTLMQGIRNRSNVA,EVSQRLN,QQYDRLPLF,En_Gen,1.83 2.42 1.58 2.19 1.92 2.07,2.00
KIQWYPLEFRGTIQAVA,EAATRYN,QQYMHLPLS,En_Gibbs,1.64 1.27 1.70 1.30 1.64 nd,1.51
YVSGDLAEGWNQQEAIA,HVSYKED,QQYYKLPLS,En_Gibbs,2.54 2.03 2.71 2.34 nd 3.43,2.61
KLSQSFLMESMNKNSVA,HASQRIW,QQYHRLPLS,GP_Gibbs,0.80 0.43 0.45 0.58 0.28 0.74,0.55
TISTSMRYESTLKNAIA,NAQTRES,QQYHRLPLS,En_HC,0.59 0.68 0.65 0.44 0.63 0.66,0.61
IVSQLMVWGYHAKNSIA,EAELRLN,QQYDRLPLF,En_Gen,nd nd nd nd nd 1.41,1.41
MISQLHNMGTFAINSVA,QASIRNA,QQYDRLPLM,En_Gen,0.58 0.62 0.54 0.40 0.68 0.67,0.58
NISQMIFMETKNHNNVA,QTSTREE,QDYHRLPLS,En_HC,0.44 1.42 0.12 -0.11 0.48 0.85,0.53
TISQSWLIESRNKNNVA,EMSTREN,QDYDRLPLS,En_HC,-0.07 -0.37 -0.51 0.51 0.28 -0.05,-0.04
KLSQSWLYGSRNANSVA,NASQREE,QQYHRLPLS,GP_Gibbs,-0.08 -0.49 -0.44 -0.46 -0.41 -0.40,-0.38
RFDLWQLESNMTEKSIA,SASNREQ,QQYARLPLF,En_Gibbs,1.00 1.17 1.23 0.79 1.06 1.08,1.05
RLRNDWNGWVNNGASIA,DANMYAP,QQYQRLPLA,En_Gibbs,0.19 0.27 0.21 0.30 0.07 0.25,0.21
FMDFQMLEWQYDANNIA,GATLSVE,QQYGRLPLT,En_Gibbs,2.27 1.93 1.45 1.31 0.72 1.51,1.53
NLGQKMSHEYEQRNSIA,DMTVREY,QHYSRIPLI,En_Gibbs,nd nd nd nd nd nd,nd
KLQQSMLYESRWWNSVA,DASVRED,QQYHRLPLS,GP_Gibbs,0.18 0.05 -0.13 0.05 -0.08 0.16,0.04
MISQVLNTLTRTGNNVA,DLAEREV,QQYFRLPLS,En_Gen,1.14 0.66 0.46 1.89 1.05 1.12,1.05
KLSQQDWYEQRNKNSVA,QASVREQ,QQYHRLPLS,GP_Gibbs,-0.38 -0.44 -0.58 -0.62 -0.64 -0.36,-0.50
KLSQITGHMSVSKNNVA,EMETRAN,QQYDRLPLA,En_Gen,1.84 0.56 1.86 0.90 0.76 0.78,1.12
KISSLTLYESVQKNNIA,EMSTRPS,QSYHRLPLS,En_HC,0.88 0.58 0.75 0.66 1.05 0.94,0.81
KFSGMDLYESRNGNSVA,DASTRSS,QQYHRLPLS,GP_Gibbs,0.52 0.37 0.12 0.74 0.57 0.89,0.53
KLREVQHVETKQKSNVA,DNDTRES,QDYYRLPLS,En_HC,nd 2.57 2.32 2.35 1.97 2.20,2.28
FLEQSEEYESRMKNSVA,NASTRCS,QQYHRLPLS,GP_Gibbs,0.12 0.02 -0.28 -0.11 -0.09 0.03,-0.05
KLSQLFYKESRNKNNVA,EMTTRMS,QCYDRLPLS,En_HC,nd 1.38 nd 0.44 nd 1.46,1.10

From the list, the first 2 with no signal in any replicate:

| CDR-L1 | CDR-L2 | CDR-L3 | group | log10 Kd, replicates | mean, log10 nM |
|---|---|---|---|---|---|
| NISTQIPEFEMWDNNIA | GATLRPT | QDYARLPLS | En_Gibbs | nd nd nd nd nd nd | nd |
| NLGQKMSHEYEQRNSIA | DMTVREY | QHYSRIPLI | En_Gibbs | nd nd nd nd nd nd | nd |